According to patent publication US12240815B2, “Potent and selective human neuronal nitric oxide synthase inhibitors” (Northwestern University, priority 2020, dated 2025):
Like-named read-outs stand apart in the source and are kept apart here.

Columns and labels:
PAMPA-BBB assay = conditions: Table 1; 200 μM, PBS pH 7.5, 25° C., 17 h; average of triplicate ± SD
[1] = 17 h, 200 μM, pH 7.5

Structure (SMILES) | Pe, effective permeability in PAMPA-BBB assay (PAMPA-BBB assay) | Pe, effective permeability in PAMPA-BBB assay [1]
Cc1cc(N)nc(CCc2cc(C#CCN(C)C)cc(F)c2F)c1 [Compound 16, 6-(5-(3-(dimethylamino)prop-1-yn-1-yl)-2,3-difluorophenethyl)-4-methylpyridin-2-amine] | ca. 18 10^−6 cm · s^−1 | –
CNCC#Cc1cc(F)c(F)c(CCc2cc(C)cc(N)n2)c1 [Compound 15, 6-(2,3-difluoro-5-(3-(methylamino)prop-1-yn-1-yl)phenethyl)-4-methylpyridin-2-amine] | – | ca. 18 10^−6 cm · s^−1
CCO[C@@H]1C[C@H](CCc2cc(F)c(F)c(CCc3cc(C)cc(N)n3)c2)N(C)C1 [Compound 20, 6-(5-(2-((2S,4R)-4-ethoxy-1-methylpyrrolidin-2-yl)ethyl)-2,3-difluorophenethyl)-4-methylpyridin-2-amine] | 17.7 10^−6 cm · s^−1 | –
Cc1cc(N)nc(CCc2cc(F)cc(C#CCN(C)C)c2)c1 [Compound 3, 6-(3-(3-(dimethylamino)prop-1-yn-1-yl)-5-fluorophenethyl)-4-methylpyridin-2-amine] | – | 18.8 10^−6 cm · s^−1
